One experiment deals with Urease. Briefly: Test for urease-inhibiting effect in soil (ammonia released from urea trapped as ammonium, t50 calculated). To be noted: Table 1, Ureidophosphorsäurediamide; Konzentration 0,1 % Harnstoff N-bez.; 30 g Boden, 40 % der maximalen Wasserkapazität, 50 mg Harnstoff; t50 = time in days in which 50 % of the urea is converted by urease.
With `NP(N)(=O)NC(=O)Nc1ccccc1`, the “t50-Wert (d)” value was 2,5 d.
Consider Diaminophosphorylharnstoff, for which the “t50-Wert (d)” value is reported as 0,5 d.
With “N-(Diaminophosphoryl)-N'-phenylharnstoff”, the “t50-Wert (d)” value is 1,0 d.

Still in this experiment, the particulars now being: Table 1, Ureidophosphorsäurediamide; Konzentration 0,4 % Harnstoff N-bez.; 30 g Boden, 40 % der maximalen Wasserkapazität, 50 mg Harnstoff; t50 = time in days in which 50 % of the urea is converted by urease.
For the compound `NC(=O)NP(N)(N)=O`, the “t50-Wert (d)” value was 6,1 d.

The same experiment, now with this note: Table 2, Carbamidsäureesterphosphorsäurediamide; Konzentration 0,1 % Harnstoff N-bez.; 30 g Boden, 40 % der maximalen Wasserkapazität, 50 mg Harnstoff; t50 = time in days in which 50 % of the urea is converted by urease.
On to `NP(N)(=O)NC(=O)NNC(=O)c1ccccc1`, for which the “t50-Wert (d)” value was 9,6 d.
For the compound “1-Adipinsäurebis-(diaminophosphorylsemicarbazid)”, the “t50-Wert (d)” value is 7,7 d.
On the same count and under the same terms, the same measure for “Diaminophosphorylcarbamidsäurebenzylester”: 5,5 d; for “Diaminophosphorylcarbamidsäureisopropylester”: 5,8 d; for “Diaminophosphorylcarbamidsäuremethylester”: 7,1 d.

Values taken from patent EP1163245B1, “(THIO) PHOSPHORYL TRIAMIDES FOR REGULATING THE ENZYMATIC UREA HYDROLYSIS” (dated 2000).
